Laboratory results taken from patent publication US20250280861A1, “SWEETENER COMPOSITIONS” (Firmenich Incorporated, priority 2022, published 2025).

The chains behind the UniProt entries cited, without tags or fusion partners. Residues count along the entry.
UniProt Q7RTX0, 21-852 limits assumed: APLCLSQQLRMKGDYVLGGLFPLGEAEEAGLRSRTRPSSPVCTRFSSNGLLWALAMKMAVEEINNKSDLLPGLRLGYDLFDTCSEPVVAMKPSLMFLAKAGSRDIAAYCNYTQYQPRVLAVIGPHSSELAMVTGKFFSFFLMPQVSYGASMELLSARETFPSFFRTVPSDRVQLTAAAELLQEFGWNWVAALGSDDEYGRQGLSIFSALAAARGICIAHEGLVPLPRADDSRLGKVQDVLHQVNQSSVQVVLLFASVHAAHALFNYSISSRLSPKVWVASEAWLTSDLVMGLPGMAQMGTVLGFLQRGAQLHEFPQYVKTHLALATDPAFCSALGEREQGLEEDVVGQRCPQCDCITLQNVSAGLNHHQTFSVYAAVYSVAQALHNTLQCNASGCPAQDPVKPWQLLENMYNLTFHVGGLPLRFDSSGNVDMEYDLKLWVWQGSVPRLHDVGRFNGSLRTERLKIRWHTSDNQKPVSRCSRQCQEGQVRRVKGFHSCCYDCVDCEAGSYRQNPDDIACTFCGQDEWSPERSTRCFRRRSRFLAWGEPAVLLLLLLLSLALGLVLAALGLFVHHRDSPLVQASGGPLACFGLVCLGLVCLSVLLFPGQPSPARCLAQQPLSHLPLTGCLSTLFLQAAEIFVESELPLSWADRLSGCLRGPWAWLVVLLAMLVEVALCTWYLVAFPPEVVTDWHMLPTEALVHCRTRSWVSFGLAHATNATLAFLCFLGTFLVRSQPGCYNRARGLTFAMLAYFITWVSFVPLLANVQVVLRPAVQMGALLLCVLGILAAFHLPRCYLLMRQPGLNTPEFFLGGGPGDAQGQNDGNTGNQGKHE
UniProt Q8TE23, 20-839 limits assumed: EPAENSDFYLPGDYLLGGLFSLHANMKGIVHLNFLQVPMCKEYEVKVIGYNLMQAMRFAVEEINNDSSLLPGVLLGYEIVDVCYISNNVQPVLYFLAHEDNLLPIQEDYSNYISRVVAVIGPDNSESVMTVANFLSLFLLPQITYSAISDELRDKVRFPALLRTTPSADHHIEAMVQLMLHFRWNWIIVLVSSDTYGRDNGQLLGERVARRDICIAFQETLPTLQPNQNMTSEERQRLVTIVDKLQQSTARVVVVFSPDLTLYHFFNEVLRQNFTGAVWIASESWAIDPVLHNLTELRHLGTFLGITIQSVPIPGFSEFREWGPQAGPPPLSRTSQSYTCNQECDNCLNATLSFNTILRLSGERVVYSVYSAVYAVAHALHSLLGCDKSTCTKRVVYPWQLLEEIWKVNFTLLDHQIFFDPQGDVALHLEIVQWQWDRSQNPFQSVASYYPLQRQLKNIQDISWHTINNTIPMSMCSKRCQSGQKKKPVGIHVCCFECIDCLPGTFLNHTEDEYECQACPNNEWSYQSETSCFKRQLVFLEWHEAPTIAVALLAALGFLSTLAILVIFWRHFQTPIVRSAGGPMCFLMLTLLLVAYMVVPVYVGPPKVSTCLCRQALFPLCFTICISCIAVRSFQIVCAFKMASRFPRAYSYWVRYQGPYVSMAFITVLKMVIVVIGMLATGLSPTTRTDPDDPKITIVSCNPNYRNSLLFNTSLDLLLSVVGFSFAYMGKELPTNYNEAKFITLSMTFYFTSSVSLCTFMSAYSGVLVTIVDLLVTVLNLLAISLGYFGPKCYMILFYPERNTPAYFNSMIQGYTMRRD

Biological target: hT1R2/T1R3 taste receptor (Homo sapiens, UniProt Q7RTX0+Q8TE23)
Test: agonist activity against the hT1R2/T1R3 taste receptor (sweet receptor based assay)
Details: read-out: Sweet EC50
Method: Compounds described in this application show moderate to potent agonist effect on the sweet receptor based assay. Potencies (EC50 values, e.g. see Tables 1-3) for agonist activity were measured against the hT1R2/T1R3 taste receptor. FIG. 1 exemplifies the data generated during the screening to determine EC50 values.

In the case of `CC(C)[C@H](C)NC(=O)C(C)(C)N1CCC(c2ccccc2)CC1`, the EC50 is reported as 4.8 µM.
